This series deals with B16-EGFR-SIY melanoma cells. Description: B16-EGFR-SIY melanoma model in mice, immunoconjugate in combination with oxiplatin. Particulars: oxiplatin 15 mg/kg tail vein day 7; immunoconjugate 0.5 mg/kg i.p. day 7, 10, 14; 5 mice per group.

Turning to oxaliplatin [oxiplatin], the “death of mice due to toxicity” value was “all of the mice in Group oxiplatin and Group Fc9-(IL10)2 and oxiplatin were dead after 14 days”.

The values above are taken from patent publication US20230241236A1, “METHODS AND COMPOSITIONS FOR CANCER TREATMENT” (DINGFU BIOTARGET, CO., LTD., priority 2020, published 2023).
